System: human platelets
Assay: Response of human platelets stimulated by collagen
Format: cell-based
Conditions: collagen 0.19 mg/ml; substance 2 mM
Experimental: Platelet rich plasma was prepared by centrifugation using known methods.
Measurements were performed using an aggregometer marketed under the name “Chrono-log”. The measurements were processed and digitized using an “MP30 Biopac” data acquisition system.
We studied the response of human platelets stimulated by collagen (0.19 mg/ml, Biodata). Two parameters were measured: the latency time (elapsed time between bringing the platelets into contact with collagen and the beginning of aggregation) and the maximum amplitude of aggregation.

SMILES: O=C([O-])c1ccccc1O.[Na+] [sodium salicylate]
- latency time (contact with collagen to beginning of aggregation): no effect
- maximum response (maximum amplitude of aggregation) to collagen: not modified
